Source: ChEMBL document CHEMBL4507300, “Data for DCP probe T-26c” (2021)

The chains behind the UniProt entries cited, without tags or fusion partners. Where a name states a change or a piece, a line headed by the entry shows the natural chain unless it says otherwise.
UniProt P11802: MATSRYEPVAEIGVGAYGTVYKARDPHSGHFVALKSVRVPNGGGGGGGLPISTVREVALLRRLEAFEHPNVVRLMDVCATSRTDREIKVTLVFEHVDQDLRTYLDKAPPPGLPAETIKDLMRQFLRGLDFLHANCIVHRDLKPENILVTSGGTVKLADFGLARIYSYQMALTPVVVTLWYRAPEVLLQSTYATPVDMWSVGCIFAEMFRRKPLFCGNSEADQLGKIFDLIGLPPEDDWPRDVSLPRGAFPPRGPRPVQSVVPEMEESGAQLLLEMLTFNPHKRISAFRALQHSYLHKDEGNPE
UniProt Q5S007: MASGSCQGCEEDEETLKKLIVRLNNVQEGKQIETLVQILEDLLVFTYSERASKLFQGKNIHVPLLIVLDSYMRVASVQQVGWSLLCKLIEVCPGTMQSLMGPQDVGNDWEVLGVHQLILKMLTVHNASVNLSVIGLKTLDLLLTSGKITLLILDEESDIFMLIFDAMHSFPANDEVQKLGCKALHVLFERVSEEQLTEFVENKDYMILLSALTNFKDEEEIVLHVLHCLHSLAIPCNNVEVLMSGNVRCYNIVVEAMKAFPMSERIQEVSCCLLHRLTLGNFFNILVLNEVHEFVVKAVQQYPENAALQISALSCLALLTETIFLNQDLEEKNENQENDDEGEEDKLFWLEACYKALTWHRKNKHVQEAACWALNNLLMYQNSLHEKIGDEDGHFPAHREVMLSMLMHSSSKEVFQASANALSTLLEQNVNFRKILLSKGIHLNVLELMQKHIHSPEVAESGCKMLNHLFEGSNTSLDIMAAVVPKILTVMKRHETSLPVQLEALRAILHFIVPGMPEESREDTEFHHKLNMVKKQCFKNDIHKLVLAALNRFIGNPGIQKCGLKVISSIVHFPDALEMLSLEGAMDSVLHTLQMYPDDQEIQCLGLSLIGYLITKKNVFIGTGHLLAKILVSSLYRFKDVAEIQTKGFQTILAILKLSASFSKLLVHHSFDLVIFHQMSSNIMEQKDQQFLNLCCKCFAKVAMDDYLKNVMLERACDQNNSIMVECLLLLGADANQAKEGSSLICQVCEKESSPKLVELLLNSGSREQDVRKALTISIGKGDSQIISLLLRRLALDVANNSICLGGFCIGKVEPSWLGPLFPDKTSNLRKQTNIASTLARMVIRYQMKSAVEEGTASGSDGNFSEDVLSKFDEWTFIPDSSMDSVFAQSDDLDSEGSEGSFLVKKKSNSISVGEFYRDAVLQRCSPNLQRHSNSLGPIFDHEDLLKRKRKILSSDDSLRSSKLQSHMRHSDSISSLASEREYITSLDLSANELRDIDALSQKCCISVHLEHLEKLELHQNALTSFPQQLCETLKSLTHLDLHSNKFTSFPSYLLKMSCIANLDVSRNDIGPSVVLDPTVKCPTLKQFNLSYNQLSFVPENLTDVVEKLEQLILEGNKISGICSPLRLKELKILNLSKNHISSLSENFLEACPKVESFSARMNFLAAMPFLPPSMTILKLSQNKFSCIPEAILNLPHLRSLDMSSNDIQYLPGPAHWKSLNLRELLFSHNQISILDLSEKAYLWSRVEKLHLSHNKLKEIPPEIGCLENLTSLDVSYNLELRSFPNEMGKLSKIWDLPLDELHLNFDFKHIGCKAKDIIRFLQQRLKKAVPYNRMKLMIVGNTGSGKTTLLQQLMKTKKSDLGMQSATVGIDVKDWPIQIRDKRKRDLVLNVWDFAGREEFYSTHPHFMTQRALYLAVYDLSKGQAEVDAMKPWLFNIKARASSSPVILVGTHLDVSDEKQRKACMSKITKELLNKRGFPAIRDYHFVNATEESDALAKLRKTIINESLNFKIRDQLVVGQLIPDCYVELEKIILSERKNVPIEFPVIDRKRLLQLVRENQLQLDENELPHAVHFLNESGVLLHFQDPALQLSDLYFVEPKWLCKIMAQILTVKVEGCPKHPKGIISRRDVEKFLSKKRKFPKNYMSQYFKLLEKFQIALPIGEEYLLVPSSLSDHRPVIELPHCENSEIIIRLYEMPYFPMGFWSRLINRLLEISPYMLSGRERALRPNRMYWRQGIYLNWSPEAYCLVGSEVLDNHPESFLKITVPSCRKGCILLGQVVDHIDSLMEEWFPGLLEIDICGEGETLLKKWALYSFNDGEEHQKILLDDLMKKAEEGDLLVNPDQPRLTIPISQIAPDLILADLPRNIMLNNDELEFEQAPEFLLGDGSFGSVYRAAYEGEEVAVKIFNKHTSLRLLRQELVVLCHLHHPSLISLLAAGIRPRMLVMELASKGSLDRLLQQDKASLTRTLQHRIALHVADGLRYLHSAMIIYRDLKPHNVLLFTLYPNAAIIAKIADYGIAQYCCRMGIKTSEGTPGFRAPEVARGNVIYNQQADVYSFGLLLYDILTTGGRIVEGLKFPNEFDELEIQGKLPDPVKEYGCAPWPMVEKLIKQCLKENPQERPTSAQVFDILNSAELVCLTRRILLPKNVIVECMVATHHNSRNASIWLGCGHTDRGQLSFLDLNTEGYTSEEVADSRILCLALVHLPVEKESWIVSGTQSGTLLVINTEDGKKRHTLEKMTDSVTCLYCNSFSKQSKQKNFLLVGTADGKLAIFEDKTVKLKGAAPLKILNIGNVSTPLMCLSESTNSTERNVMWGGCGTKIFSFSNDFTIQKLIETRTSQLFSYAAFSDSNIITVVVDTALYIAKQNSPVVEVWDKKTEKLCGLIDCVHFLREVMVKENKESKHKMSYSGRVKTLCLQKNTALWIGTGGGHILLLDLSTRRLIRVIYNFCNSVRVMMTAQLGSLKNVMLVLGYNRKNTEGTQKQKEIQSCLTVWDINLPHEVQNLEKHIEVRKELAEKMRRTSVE
UniProt P04629: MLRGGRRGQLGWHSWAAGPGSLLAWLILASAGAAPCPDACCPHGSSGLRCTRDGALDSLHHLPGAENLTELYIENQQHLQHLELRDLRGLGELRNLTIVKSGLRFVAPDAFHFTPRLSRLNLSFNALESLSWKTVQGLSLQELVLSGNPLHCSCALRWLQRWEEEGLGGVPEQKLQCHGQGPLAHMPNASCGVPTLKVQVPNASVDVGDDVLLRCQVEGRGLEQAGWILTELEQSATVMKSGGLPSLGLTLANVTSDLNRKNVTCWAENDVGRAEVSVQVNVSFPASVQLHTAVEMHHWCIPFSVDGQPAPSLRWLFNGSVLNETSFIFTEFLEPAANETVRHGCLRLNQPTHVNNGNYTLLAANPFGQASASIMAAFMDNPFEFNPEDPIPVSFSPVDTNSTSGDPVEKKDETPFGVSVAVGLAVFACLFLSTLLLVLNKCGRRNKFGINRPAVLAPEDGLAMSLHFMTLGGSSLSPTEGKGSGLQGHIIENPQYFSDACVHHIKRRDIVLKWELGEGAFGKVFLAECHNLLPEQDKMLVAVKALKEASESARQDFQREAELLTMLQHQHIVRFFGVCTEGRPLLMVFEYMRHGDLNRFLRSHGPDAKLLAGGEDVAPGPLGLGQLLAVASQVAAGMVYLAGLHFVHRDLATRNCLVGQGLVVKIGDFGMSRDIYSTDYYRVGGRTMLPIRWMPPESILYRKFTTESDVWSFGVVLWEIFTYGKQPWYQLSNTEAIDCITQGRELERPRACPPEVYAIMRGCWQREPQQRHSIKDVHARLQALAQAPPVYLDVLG

What was measured:
[1] = biological target: Cyclin-dependent kinase 4 (Homo sapiens) (UniProt P11802); settings: Compound concentration 1000.0 nM
[2] = tested on: Receptor-type tyrosine-protein kinase FLT3 (Homo sapiens), P36888 [D835V]; settings: Compound concentration 1000.0 nM
[3] = biological target: Leucine-rich repeat serine/threonine-protein kinase 2 (Homo sapiens) (UniProt Q5S007); settings: Compound concentration 1000.0 nM
[4] = biological target: High affinity nerve growth factor receptor (Homo sapiens) (UniProt P04629); settings: Compound concentration 1000.0 nM
[5] = biological target: Collagenase 3 (Bos taurus) (UniProt O77656); settings: at 0.1 µM

COc1cccc(CNC(=O)c2nc3scc(COCc4ccc(C(=O)O)cc4)c3c(=O)[nH]2)c1 [T-26c]
active: residual activity [1] 43.5% | residual activity [2] 44.2% | residual activity [3] 43% | residual activity [4] 46.7% | inhibition [5] 87%
